The list is not random: actives were taken first. Their share in the collection is about 3.7%.
A549 tox: counter-screen for Nrf2 inhibitors: cytotoxicity in A549 cells | A549 ARE-Fluc cells, CellTiter-Fluor viability, 18-24 h | Potency, µM (titrated, usually from 46 µM), inactives show at the top dose activity change, negative = cytotoxicity, most hits filed as inhibitors | hit rate 0.16% among 390,000; further: potency means the concentration at half of the fitted maximal effect; on the % scale 0 is the no-effect control and ±100 the full control effect
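Cytotoxicity counterscreen: CellTiter-Fluor fluorescence was measured in A549 ARE_Fluc cells after 18-24 h of compound exposure in a concentration series. The subsequent BugLite luminescent read reports ARE-luciferase activity.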
miR-21 FLuc: miR-21 reporter, rising signal. HeLa miR-21 FLuc reporter, luciferase, 48 h. Potency, µM (highest dose often 38.3 µM), for the others: at the highest dose reporter change, positive = more light. 340,000 tested, under 10 active. AID 2288; active = well fitted rising curve with a large enough effect; inconclusive = small, poorly fitted or top-dose-only effect; inactive = no such curve, though single readings can be large or run the other way;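 further: % of control where 0% means no effect; miR-21 action dims this reporter so a rising signal means less miR-21 action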
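Using DMEM plus 10% FBS, HeLa miR-21-FLuc cells are incubated with test compounds (final up to about 40uM) for 48 hours; firefly luciferase signal is then imaged following reagent-mediated lysis.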
Nrf2 activator: Nrf2 pathway activation; AREc32 ARE-luciferase reporter (MCF7-derived line), luminescence, 24 h; Potency, µM (titrated, usually from 46.1 µM), for inactives: at the top dose activation, hits mostly activators; hit rate 0.31% among 410,000; further: potency means the concentration at half of the fitted maximal effect; % of control where 0% means no effect; nearly all actives have a fitted effect of over 65% in size
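ARE-driven firefly luciferase activity in AREc32 cells measured after a 24 hr compound exposure at 37 deg C, using Steady-Glo reagent and a 30 min room-temperature hold.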
IL2 activator: activators of IL-2; activation, % (series mostly up to about 46 µM); hit rate 0.065% among 360,000; IL-2 activation reporter assay, cell-based qHTS; stimulated with anti-CD3/CD4/CD28 beads; in transgenic mouse T cells; in the data active means activation above about 50%; inconclusive means mostly about 30% to 49%; further: 0% is about no effect
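Screening format: compound pinned onto unstimulated transgenic mouse T cells, 60 min incubation, then anti-CD3/anti-CD4/anti-CD28 bead stimulation for 18 hours at 37 degrees C, followed by EGFP and DsRed detection.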
ClpP mod: qHTS Assay for Activators of ClpP; ATP-dependent Clp protease proteolytic subunit (Bacillus subtilis (strain 168)), P80244; purified B. subtilis ClpP, FRET peptide cleavage, 20 min; Potency, µM (doses to about 57.5 µM), inactives show top-dose activity change, negative = active; hit rate 1.9% among 340,000; AID 651965, 2013; active means well fitted falling curve with a large enough effect; inconclusive means small, poorly fitted or top-dose-only effect; inactive means no such curve, though single readings can be large or run the other way; further: potency means the concentration at half of the fitted maximal effect; the source files actives as falling curves though it sought activators and does not explain the sign; nearly all actives have a fitted effect of over 65% in size
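ClpP 10 microg/mL final, pH 8 Tris/KCl buffer with BSA, glycerol, Tween-20; compound pinned in; FRET-FV substrate; RT 20 min; Ex320/Em430; ΔFRET vs ADEP 5.8 microM, DMSO, no enzyme.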
Nrf2 block: blocks Nrf2 signaling; Potency, µM (titrated, usually from 46 µM), for the others: top-dose activity change, negative = inhibition, hits mostly inhibitors; hit rate 2.1% among 360,000; A549 ARE-Fluc reporter, luciferase luminescence, 18-24 h; further: potency means the concentration at half of the fitted maximal effect; on the % scale 0 is the no-effect control and ±100 the full control effect; nearly all actives have a fitted effect of over 60% in size
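Quantitative HTS in A549 cells stably bearing an antioxidant response element-firefly luciferase construct. Inhibition of Nrf2-driven transcription was scored by luminescence after 18-24 h of compound exposure at 37 °C.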
Starred values were filed as active, the others as inactive; u = inconclusive; x = no result given. Unless noted, the call rests on the fitted dose curve; in most records, active means well fitted curve in the direction sought with a large enough effect; inconclusive means small, poorly fitted or top-dose-only effect, or another doubt; inactive means no such curve, though single readings can be large; an effect the other way counts as inactive or inconclusive.

Sequences of proteins named here, by UniProt entry; tags and fusion partners are left off.
ATP-dependent Clp protease proteolytic subunit (Bacillus subtilis (strain 168)), P80244, UniProt P80244, whole entry, looked up: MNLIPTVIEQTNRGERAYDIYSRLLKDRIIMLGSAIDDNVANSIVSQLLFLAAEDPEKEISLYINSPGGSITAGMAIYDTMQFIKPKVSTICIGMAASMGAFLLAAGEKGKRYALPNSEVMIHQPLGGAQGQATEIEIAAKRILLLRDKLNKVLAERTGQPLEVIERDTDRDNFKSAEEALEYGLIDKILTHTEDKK

The first 2 compounds, to show the layout:
| # | SMILES | A549 tox | miR-21 FLuc | Nrf2 activator | IL2 activator | ClpP mod | Nrf2 block |
| --- | --- | --- | --- | --- | --- | --- | --- |
| 1 | Cc1cccn2c(=O)c(C=Nc3ccc(Cl)cc3)c(NCCO)nc12 | 3% | -5% | 2% | -2 | 28µM* | 6% |
| 2 | CCc1ccc(-c2nc3c(c(SCc4ccc(F)cc4)n2)Cc2c(CO)cnc(C)c2O3)cc1 | 0% | -2% | 0% | x | 1% | 18% |

The listing, from the start:
| # | SMILES | A549 tox | miR-21 FLuc | Nrf2 activator | IL2 activator | ClpP mod | Nrf2 block |
| --- | --- | --- | --- | --- | --- | --- | --- |
| 1 | Cc1cccn2c(=O)c(C=Nc3ccc(Cl)cc3)c(NCCO)nc12 | 3% | -5% | 2% | -2 | 28µM* | 6% |
| 2 | CCc1ccc(-c2nc3c(c(SCc4ccc(F)cc4)n2)Cc2c(CO)cnc(C)c2O3)cc1 | 0% | -2% | 0% | x | 1% | 18% |
| 3 | COCCCNC(=S)NNC(=O)C1CC1c1ccc(C(C)(C)C)cc1 (stereo unspecified) | -2% | 9% | -1% | -2 | 0% | 21µM* |
| 4 | CCCCOc1ccc(C2OC34CCCCC3C(C#N)(C#N)C2(C#N)C(=N)O4)cc1 (stereo unspecified) | 7% | -2% | 3% | 0 | 1% | -3% |
| 5 | C=CCOc1ccc(C2OC34CCCCC3C(C#N)(C#N)C2(C#N)C(=N)O4)cc1 (stereo unspecified) | 4% | -1% | -1% | 0 | 22µM* | -11% |
| 6 | Cc1csc2c(N3CCN(C(=O)Nc4ccc(OC(F)(F)F)cc4)CC3)ncnc12 | -19% | -8% | 0% | 0 | -1% | 21µM* |
| 7 | COc1cccc(-c2cc(C(=O)Nc3cc(Cl)ccc3O)on2)c1 | 2% | 18% | 7.9µM* | x | -12% | 7% |
| 8 | COc1cccc(-c2cc(C(=O)Nc3cc(OC)c(OC)c(OC)c3)on2)c1 | 0% | 0% | 0% | x | 0% | -7% |
| 9 | CC(=O)c1ccc(NC(=O)Cn2ncc3c(C)n(Cc4ccc(F)cc4)c(C)c3c2=O)cc1 | -4% | -10% | -1% | x | -9% | -12% |
| 10 | Oc1ccc(N=Cc2ccc(OCc3ccccc3)cc2)cc1 | u | -4% | 14µM* | -1 | 1% | u |
| 11 | NC(=O)[C@H]1CC2(CC(c3cccc(NC(=O)COc4ccc(Cl)cc4)c3)=NO2)CN1C(=O)c1ccc(Cl)cc1 (stereo partly specified) | u | u | -3% | -1 | -4% | 26µM* |
| 12 | CCC(=O)N1CC2(CC(c3cccc(NC(=O)COc4ccc(Cl)cc4)c3)=NO2)C[C@@H]1C(N)=O (stereo partly specified) | x | 8% | x | x | x | x |
| 13 | C[C@H](CO)N1C[C@H](C)[C@@H](CN(C)S(=O)(=O)c2ccc(F)cc2)Oc2c(NC(=O)Nc3ccc(C(F)(F)F)cc3)cccc2C1=O | -15% | x | 0% | 0 | 1% | 18µM* |
| 14 | COc1ccc(S(=O)(=O)Nc2cccc3c2O[C@H](CN(C)Cc2ccc(-c4ccccc4)cc2)[C@@H](C)CN([C@H](C)CO)C3=O)cc1 | -4% | x | 3% | 0 | -3% | 1% |
| 15 | C[C@@H]1CN([C@H](C)CO)C(=O)c2cc(NS(=O)(=O)c3ccc(F)cc3)ccc2O[C@@H]1CN(C)Cc1ccc(Cl)c(Cl)c1 | 15µM* | x | -3% | -1 | -3% | 18µM* |
| 16 | CC(C)NC(=O)N(C)C[C@H]1Oc2c(NC(=O)Cc3ccccc3)cccc2C(=O)N([C@H](C)CO)C[C@@H]1C | 1% | x | 0% | -2 | -4% | 14% |
| 17 | C[C@H](CO)N1C[C@H](C)[C@@H](CN(C)CC2CCCCC2)Oc2c(NC(=O)Cc3ccccc3)cccc2C1=O | -16% | x | -2% | -1 | -1% | 23µM* |
| 18 | COc1ccc(S(=O)(=O)Nc2cccc3c2O[C@H](CN(C)Cc2ccc(Oc4ccccc4)cc2)[C@@H](C)CN([C@H](C)CO)C3=O)cc1 | -13% | x | 0% | 0 | -1% | 16µM* |
| 19 | C[C@H](CO)N1C[C@H](C)[C@@H](CN(C)Cc2ccc(Cl)c(Cl)c2)Oc2c(NC(=O)CCC(F)(F)F)cccc2C1=O | -14% | x | -2% | -5 | -1% | 18µM* |
| 20 | COc1cc2nc(N3CCN(C)CC3)nc(NC3CCN(Cc4ccccc4)CC3)c2cc1OC | x | x | x | x | 4% | x |
| 21 | CN(C)c1ccc(/C=C/c2c(F)cnc3ccccc23)cc1 | x | x | x | x | 2% | x |

Record cards, from the list above. Order of values: A549 tox | miR-21 FLuc | Nrf2 activator | IL2 activator | ClpP mod | Nrf2 block
`CCc1ccc(-c2nc3c(c(SCc4ccc(F)cc4)n2)Cc2c(CO)cnc(C)c2O3)cc1` as listed: 0% | -2% | 0% | x | 1% | 18%
`C[C@H](CO)N1C[C@H](C)[C@@H](CN(C)CC2CCCCC2)Oc2c(NC(=O)Cc3ccccc3)cccc2C1=O` as listed: -16% | x | -2% | -1 | -1% | 23µM*

Source: PubChem (National Center for Advancing Translational Sciences (NCATS))
